The chains behind the UniProt entries cited, without tags or fusion partners.
UniProt P33261, whole entry: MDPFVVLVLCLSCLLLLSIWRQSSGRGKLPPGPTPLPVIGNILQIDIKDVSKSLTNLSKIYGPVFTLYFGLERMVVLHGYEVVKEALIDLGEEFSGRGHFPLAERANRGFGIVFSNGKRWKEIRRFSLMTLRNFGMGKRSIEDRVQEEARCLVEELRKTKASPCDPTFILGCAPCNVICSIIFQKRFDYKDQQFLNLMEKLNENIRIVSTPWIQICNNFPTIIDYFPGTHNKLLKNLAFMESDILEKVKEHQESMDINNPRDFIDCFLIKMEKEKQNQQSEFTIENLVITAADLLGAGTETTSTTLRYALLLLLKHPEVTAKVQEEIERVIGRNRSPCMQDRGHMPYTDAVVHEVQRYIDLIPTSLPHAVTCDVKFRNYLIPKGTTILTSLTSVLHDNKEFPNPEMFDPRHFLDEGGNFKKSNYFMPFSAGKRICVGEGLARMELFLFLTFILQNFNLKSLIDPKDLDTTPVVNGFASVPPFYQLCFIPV
UniProt P11712, whole entry: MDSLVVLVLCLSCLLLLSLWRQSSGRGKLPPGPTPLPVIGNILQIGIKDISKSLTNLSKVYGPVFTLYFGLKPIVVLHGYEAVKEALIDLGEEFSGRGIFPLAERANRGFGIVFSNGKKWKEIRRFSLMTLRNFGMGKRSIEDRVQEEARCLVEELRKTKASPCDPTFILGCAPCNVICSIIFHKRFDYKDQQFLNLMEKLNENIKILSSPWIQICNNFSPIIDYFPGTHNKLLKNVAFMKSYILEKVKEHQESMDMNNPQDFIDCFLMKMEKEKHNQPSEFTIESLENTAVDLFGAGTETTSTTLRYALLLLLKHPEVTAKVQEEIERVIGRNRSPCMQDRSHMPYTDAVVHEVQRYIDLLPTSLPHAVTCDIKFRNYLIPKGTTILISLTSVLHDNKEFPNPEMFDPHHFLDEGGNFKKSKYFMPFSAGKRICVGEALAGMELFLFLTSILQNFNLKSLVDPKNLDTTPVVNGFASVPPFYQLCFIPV

In patent US7267949B2, “Composition comprising methylphenidate and another drug” (Celltech Pharma Europe Limited, priority 1995, dated 2007):

How the values were obtained:
P450 Isozyme 2C19 = P450 Isozyme 2C19 (Homo sapiens, UniProt P33261); experiment: Mephenytoin hydroxylase activity in human microsome preparations; conditions: standard inhibitor at 50 μM, human microsomes
P450 Isozyme 2C9 = P450 Isozyme 2C9 (Homo sapiens, UniProt P11712); experiment: Tolbutamide hydroxylase activity in human microsome preparations; conditions: test substance at 100 μM, human microsomes

Row | Structure (SMILES) | % Inhibition of Enzyme Activity (Mephenytoin hydroxylase, 2C19) (P450 Isozyme 2C19) [%] | % Inhibition of Enzyme Activity (Tolbutamide hydroxylase, 2C9) (P450 Isozyme 2C9) [%]
1 | N[C@@H]1C[C@H]1c1ccccc1 [Tranylcypronine] | 83 | 
2 | COC(=O)[C@@H](c1ccccc1)[C@@H]1CCCCN1 [ltmp] |  | 34
